Common to all, as to format: in vivo, human
The test system of assay [1] is TET2 variant allele burden. Nature of the assay: TET2 variant allele burden by next generation sequencing, PROUD-PV/CONTINUATION-PV. As to conditions: TET2mut patients, baseline 32.4%. The text has this:
TET2 mutations can be assayed in blood samples or blood cells using methods known in the art, e.g., sequencing or PCR. TET2 mutant allele burden (%) can also be determined using methods known in the art. Allele burden represents the percentage of mutant TET2 alleles present among all TET2 alleles in blood cells, e.g., peripheral blood mononuclear cells. More specifically, a TET2 allele burden can be at least 5%, e.g., about 5%, 10%, 15%, 20%, 25%, is 30%, 35%, 40%, 45%, 50%, 55%, 60% or more.
(§1) PROUD-PV was a phase III, randomized, controlled, multicenter study conducted in 47 centers across Europe to compare ropeginterferon alpha-2b to hydroxyurea in patients with polycythemia vera. CONTINUATION-PV is the ongoing extension study of PROUD-PV.
(§2) Next generation sequencing (NGS; TruSight™ Myeloid Panel, Illumina) was performed to detect non-driver mutations. All patients enrolled in CONTINUATION-PV were included in an interim efficacy analysis over 36 months by non-driver baseline mutational status.

Assay [2] relates to patients with polycythemia vera. Description: Complete hematological response (CHR), modified ELN criteria, PROUD-PV/CONTINUATION-PV.
Description: as §1
Patients with polycythemia vera diagnosed using 2008 World Health Organization criteria who were either cytoreduction-naïve or hydroxyurea pre-treated without resistance or intolerance were enrolled. In PROUD-PV, patients were randomized 1:1 to receive ropeginterferon alpha-2b or hydroxyurea for one year. Thereafter, patients could roll over into CONTINUATION-PV. Treatment arms remained as allocated in PROUD-PV, but patients in the HU arm could switch to best-available therapy (BAT). Complete hematological response (CHR) was assessed according to modified European LeukemiaNet (ELN) criteria: (1) hematocrit <45% with no phlebotomy for ≥3 months; (2) platelet count <400×10^9/L; (3) leukocyte count <10×10^9/L.
as §2

Assay [3] relates to JAK2V617F allele burden. Description: JAK2V617F molecular response and allele burden, PROUD-PV/CONTINUATION-PV. As to the method: as §1
Molecular response (MR) with respect to JAK2V617F allele burden was assessed according to European LeukemiaNet criteria.
as §2

Results on one substance are retold here after patent publication US20220362343A1, “METHOD OF REDUCING TET2 MUTANT ALLELE BURDEN” (PharmaEssentia Corporation, priority 2021, published 2022).

Take ropeginterferon alpha-2b: the “mean TET2 variant allele burden” value in assay [1] (month 12) is recorded as 24.2%; in assay [1] (month 24, reduction p=0.047), 20.0%; in assay [1] (month 36 (only 3 patients with NGS data)) it was 17.3%. For the same substance, the “CHR achieved, % of patients” value in assay [2] (TET2mut patients (n=10), 24 months) was determined as 60.0%; in assay [2] (TET2mut patients (n=10), 36 months) it was 70.0%; in assay [2] (TET2 wt patients (n=82), 24 months) it was 72.0%; in assay [2] (TET2 wt patients (n=82), 36 months), 70.7%. Besides, the “JAK2V617F molecular response rate” value is 50.0% in assay [3] (TET2mut patients, 24 months); 50.0% in assay [3] (TET2mut patients, 36 months); 70.7% in assay [3] (TET2 wt patients, 24 months); 68.3% in assay [3] (TET2 wt patients, 36 months). Moreover, in assay [3] (TET2mut patients, during treatment, reduced from 51.3%), the “Mean JAK2V617F allele burden” value is reported as 31.8%. Further, in assay [3] (comparison of subgroups, P>0.05), the “JAK2V617F molecular response rates, TET2mut versus TET2 wt patients” value is “no significant difference”. Moreover, the “absolute JAK2V617F allele burden or relative change in allele burden, TET2mut versus TET2 wt subgroups” value in assay [3] (during treatment) is “no significant difference”.
